From ChEMBL document CHEMBL2412952, “2-Substituted 4-hydroxybutanamides as potential inhibitors of γ-aminobutyric acid transporters mGAT1-mGAT4: synthesis and biological evaluation” (Bioorg Med Chem, 2013)

Molecular target: Sodium- and chloride-dependent GABA transporter 1 (Mus musculus, UniProt P31648)
Experiment: Binding affinity to mouse GAT1 stably transfected in HEK293 cells by NO-711 binding assay
Type: cell-based

Ki: 27.5 µM
SMILES: COc1ccc(C(OCCN2CCC[C@H](C(=O)O)C2)(c2ccc(OC)cc2)c2ccc(OC)cc2)cc1
